Numbers after ± are expanded uncertainties.
Experiment: refractive index (Na D-line) (dimensionless)
Details: 298.15 K; 101.33 kPa; Liquid; Standard Abbe refractometry

CCCCOCCCC [dibutyl ether]
refractive index: 1.3963 ± 0.0005
